Assay results from patent US4835182A (priority 1987, dated 1989).

Assay: Brain/plasma concentration integral ratio following administration
Details: following administration to animal model or humans

`O=C(O)Cc1ccc(N(CCCl)CCCl)cc1` showed a mean brain/plasma concentration integral ratio of 0.01.
